Earlier results on 1 substance are cited in patent US20140322202A1, “TREATMENT WITH ANTI ErbB2 ANTIBODIES” (Genentech, Inc., priority 1999, published 2014).

For series [1], the system named is BT-474 human breast adenocarcinoma cells. The conditions noted are these: breast cancer xenografts in nude mice injected with BT-474 cells.
Series [2] concerns ErbB2-overexpressing metastatic breast cancers. The conditions noted are these: patients with ErbB2-overexpressing metastatic breast cancers that had received extensive prior therapy.
Series [3] has as its system breast cancer cells that contain high levels of ErbB2.
Series [4] shares this test system. The source holds these as a separate data set.

For the substance “HERCEPTIN: recombinant humanized anti-ErbB2 monoclonal antibody, a humanized version of the murine anti-ErbB2 antibody 4D5”, the “enhancement of activity of paclitaxel (TAXOL) and doxorubicin” value in series [1] is on record as “enhance the activity”. Besides, the clinical activity entry in series [2] is “clinically active”. For the same substance, the “inhibition of growth in human xenografts” value in series [3] is “markedly inhibits”. Also, the “inhibition of growth in vitro” value in series [4] is listed as “markedly inhibits”.
